Structures are written as SMILES.

Amino acid sequences for entries named in this document (tags omitted). A change or cut given only in a name is not applied to a line headed by its entry.
UniProt P42338: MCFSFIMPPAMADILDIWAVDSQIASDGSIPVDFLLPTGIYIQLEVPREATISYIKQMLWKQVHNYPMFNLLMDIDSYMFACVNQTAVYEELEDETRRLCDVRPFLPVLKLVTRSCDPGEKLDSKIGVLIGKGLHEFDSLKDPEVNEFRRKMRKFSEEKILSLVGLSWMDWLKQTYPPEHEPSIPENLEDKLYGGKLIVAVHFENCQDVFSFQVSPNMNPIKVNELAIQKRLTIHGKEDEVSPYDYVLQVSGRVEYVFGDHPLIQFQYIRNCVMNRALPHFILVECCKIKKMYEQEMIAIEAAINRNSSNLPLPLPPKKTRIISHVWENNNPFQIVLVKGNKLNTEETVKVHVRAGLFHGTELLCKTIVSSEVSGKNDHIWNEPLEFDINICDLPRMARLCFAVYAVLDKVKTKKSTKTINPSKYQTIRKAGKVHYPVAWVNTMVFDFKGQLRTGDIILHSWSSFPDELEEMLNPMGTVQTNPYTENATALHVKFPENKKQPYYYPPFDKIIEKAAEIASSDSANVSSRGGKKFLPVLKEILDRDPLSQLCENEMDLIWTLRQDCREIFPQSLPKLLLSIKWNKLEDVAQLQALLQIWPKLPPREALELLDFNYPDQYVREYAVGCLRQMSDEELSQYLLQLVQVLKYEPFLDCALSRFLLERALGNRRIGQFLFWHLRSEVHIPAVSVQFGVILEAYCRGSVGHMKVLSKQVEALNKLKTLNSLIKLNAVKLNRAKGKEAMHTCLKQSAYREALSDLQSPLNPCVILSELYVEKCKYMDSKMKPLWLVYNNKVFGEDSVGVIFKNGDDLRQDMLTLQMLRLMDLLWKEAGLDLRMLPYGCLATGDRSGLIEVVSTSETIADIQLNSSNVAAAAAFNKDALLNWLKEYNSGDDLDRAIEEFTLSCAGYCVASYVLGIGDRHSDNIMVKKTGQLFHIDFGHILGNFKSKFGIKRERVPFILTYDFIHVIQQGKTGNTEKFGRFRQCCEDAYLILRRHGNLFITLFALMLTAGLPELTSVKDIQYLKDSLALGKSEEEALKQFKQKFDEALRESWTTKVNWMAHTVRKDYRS
UniProt P48736: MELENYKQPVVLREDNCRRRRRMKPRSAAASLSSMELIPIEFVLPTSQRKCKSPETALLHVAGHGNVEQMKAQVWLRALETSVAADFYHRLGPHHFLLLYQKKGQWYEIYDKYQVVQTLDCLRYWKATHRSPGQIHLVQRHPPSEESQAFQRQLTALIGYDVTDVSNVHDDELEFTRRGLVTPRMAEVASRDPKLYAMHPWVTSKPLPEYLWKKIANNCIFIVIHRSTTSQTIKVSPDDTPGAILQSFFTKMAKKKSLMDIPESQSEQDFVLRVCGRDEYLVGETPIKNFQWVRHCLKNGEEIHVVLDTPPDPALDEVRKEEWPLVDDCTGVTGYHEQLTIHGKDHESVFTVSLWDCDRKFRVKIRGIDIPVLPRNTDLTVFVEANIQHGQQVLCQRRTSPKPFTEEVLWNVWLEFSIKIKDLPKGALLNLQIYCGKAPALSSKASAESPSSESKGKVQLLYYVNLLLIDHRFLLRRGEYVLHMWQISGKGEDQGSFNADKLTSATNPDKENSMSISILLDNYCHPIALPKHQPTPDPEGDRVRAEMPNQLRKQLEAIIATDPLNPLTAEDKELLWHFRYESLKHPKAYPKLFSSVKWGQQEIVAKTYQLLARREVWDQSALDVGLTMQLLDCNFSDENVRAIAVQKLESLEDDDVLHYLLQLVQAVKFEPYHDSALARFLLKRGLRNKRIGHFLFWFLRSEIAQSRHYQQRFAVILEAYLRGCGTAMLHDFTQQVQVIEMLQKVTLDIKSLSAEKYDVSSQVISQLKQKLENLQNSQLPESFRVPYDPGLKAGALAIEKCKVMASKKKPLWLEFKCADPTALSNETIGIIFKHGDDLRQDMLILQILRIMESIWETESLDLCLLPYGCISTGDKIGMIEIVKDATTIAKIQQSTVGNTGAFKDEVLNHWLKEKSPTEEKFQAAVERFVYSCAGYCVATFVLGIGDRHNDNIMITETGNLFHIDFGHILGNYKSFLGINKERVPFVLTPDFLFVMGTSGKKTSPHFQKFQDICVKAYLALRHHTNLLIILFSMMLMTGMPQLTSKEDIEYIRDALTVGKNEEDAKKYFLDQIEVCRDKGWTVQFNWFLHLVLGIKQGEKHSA

We go through 1 compound from patent US20200061062A1, “INHIBITORS OF HUMAN PHOSPHATIDYLINOSITOL 3-KINASE DELTA” (ICOS Corporation, priority 2000, published 2020).

In assay [1] the target is T1, PI3Kβ (Homo sapiens, UniProt P42338). Briefly: Biochemical assay of PI3K potency and selectivity using 20 μM ATP, Beta. More on the design: His tag (pFastbac HTa vector) (N); FLAG (N); made in house; host or cells: Sf21 insect cells (baculovirus).
The target of assay [2] is T1, PI3Kβ. Briefly: Biochemical assay using 200 μM ATP, Beta.
The target of another assay is PI3Kγ (Homo sapiens, UniProt P48736). As to the kind of experiment: Biochemical assay using 200 μM ATP, Gamma.

For `O=c1cc(N2CCOCC2)oc2c(-c3ccccc3)cccc12` [LY294002, reference compound], the IC50 on PI3Kβ [1] (20 μM ATP, read-out: Beta IC50) was 400 nM; on PI3Kβ [1] (Example 2 assay conditions, limit of 100 μM compound, read-out: IC50, β isoform of PI3K (FIG. 1)) it was 300 to 1000 nM; on PI3Kβ [2] it was 3700 ± 2000 nM; against PI3Kγ, 29000 ± 13000 nM.
